Test system: L-DOPA methylation
Test: Animal experiment III: L-DOPA methylation in dopamine-depleted
Format: in vivo, rat
Conditions: reserpinized rats; 2 h after oral L-DOPA/carbidopa 20/20 mg/kg

Question: For L-DOPA/carbidopa, which “plasma 3-OMD level” value is on record?
Answer: 16.4 ± 1.9 µM
